Measured values taken from patent publication US11690828B2, “Treatment of CNS diseases with sGC stimulators” (Cyclerion Therapeutics, Inc., priority 2016, dated 2023).

Tested on: rats
Test: Oxaliplatin - acetone test (reaction time)
Format: in vivo, rat
Settings: internal reference Gabapentin 100 mg/kg, po
Experimental: Oxaliplatin. Induction: Acute peripheral neuropathy was induced by a single intraperitoneal injection of oxaliplatin (6 mg/kg, i.p) 30 hours before testing. Acetone test: Cold allodynia was measured using the acetone test. In this test, the latency of hind paw withdrawal was measured after application of a drop of acetone (50 μL) to the plantar surface of both hind paws three times for both hind paws alternatively with intervals of approximately 2-3 min.
Testing: 120 minutes after treatment. N=4/model/test. Results are expressed for each group as a percentage of activity calculated from the mean value of the vehicle-treated animals and compared to naïve animals, control paw, or cut-off value, depending on the test.

SMILES: NCC1(CC(=O)O)CCCCC1
- % of activity vs. vehicle, oxaliplatin acetone test (reaction time): 82%
